Measured values as given in EP4786461A1, “PYRAZOLE CARBOXYLIC ACID DERIVATIVE AND USE THEREOF IN MEDICINE” (Haisco Pharmaceutical Group Co., Ltd., priority 2023, dated 2025).

The chains behind the UniProt entries cited, without tags or fusion partners.
UniProt Q02108, whole entry: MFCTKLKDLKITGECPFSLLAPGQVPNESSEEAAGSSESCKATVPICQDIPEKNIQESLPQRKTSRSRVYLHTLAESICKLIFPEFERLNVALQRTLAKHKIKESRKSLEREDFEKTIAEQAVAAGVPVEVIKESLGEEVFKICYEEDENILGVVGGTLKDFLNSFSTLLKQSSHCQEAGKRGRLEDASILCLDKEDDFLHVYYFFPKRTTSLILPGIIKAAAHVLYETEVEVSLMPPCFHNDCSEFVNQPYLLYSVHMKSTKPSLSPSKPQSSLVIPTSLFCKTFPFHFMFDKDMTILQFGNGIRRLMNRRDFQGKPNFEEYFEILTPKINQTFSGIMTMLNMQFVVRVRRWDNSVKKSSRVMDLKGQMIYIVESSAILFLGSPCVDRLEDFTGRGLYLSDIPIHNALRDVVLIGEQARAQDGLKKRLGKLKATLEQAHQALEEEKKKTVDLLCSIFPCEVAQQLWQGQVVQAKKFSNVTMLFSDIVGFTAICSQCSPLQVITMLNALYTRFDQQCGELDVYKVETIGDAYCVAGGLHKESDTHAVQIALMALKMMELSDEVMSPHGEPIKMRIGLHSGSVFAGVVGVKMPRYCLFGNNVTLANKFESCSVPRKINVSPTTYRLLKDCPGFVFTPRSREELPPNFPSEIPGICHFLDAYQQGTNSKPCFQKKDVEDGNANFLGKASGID
UniProt Q02153, whole entry: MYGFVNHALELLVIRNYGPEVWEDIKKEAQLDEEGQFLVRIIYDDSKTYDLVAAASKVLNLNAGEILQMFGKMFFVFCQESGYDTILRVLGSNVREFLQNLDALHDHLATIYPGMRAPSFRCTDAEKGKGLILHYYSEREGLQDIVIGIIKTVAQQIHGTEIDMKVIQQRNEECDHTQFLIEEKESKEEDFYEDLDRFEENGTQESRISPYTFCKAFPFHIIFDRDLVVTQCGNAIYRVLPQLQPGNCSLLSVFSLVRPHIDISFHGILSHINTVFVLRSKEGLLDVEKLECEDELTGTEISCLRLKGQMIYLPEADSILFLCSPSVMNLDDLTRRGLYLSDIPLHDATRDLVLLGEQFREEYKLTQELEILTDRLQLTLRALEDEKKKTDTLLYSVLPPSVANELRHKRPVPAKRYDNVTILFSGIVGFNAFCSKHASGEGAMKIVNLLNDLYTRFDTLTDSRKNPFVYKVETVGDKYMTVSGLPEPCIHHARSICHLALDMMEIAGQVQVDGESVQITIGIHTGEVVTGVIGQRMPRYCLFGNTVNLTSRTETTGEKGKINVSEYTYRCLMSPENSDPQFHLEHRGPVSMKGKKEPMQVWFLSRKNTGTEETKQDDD

Biological target: soluble guanylate cyclase (sGC) (Homo sapiens, UniProt Q02108+Q02153)
Experiment: In vitro detection experiment for soluble guanylate cyclase (sGC) activity (TR-FRET cGMP)
Details: enzymatic agonism and/or activation of sGC; 1.5 nM sGC, 5 µM GTP, 100 µM DETA NONOate; tested form: free form

CC(C)CN1C2CCC1CN(c1ccc(-c3ccc(Cl)cc3N3CCCC(n4ncc(C(=O)O)c4C(F)F)C3)cc1)C2 (single isomer, unassigned)
EC50: < 20 nM
